Results: PubChem BioAssay (Tox21)
Values joined by “and” are separate entries in the source; they are usually repeats but may differ in a detail not shown here. Equal entries are not always repeated. This is a selection; strong and weak results do not stand in their true shares. Results filed as inconclusive are left out. Active and inactive are the calls of the source. Calls come from the whole dose curve; as a rule, active = well fitted activation curve with a large enough effect in the repeat runs; inconclusive = weak or mixed curves; inactive = flat fitted curve, though single readings scatter.

assay: A CellTox Green Cytotoxicity Assay to monitor cytotoxicity in HEK293 cells - 8 hour (AID 1224884); details: CellTox Green fluorescence; series mostly up to 76.8 µM; cytotoxicity increase: at the top concentration; note: nearly all actives have a fitted effect of over 35% in size
Excerpt: National Center for Advancing Translational Sciences [NCATS]
NIH Chemical Genomics Center [NCGC]
U.S. Environmental Protection Agency [EPA]
National Institutes of Environmental Health Sciences [NIEHS]
National Toxicology Program [NTP]
Cell-based models are critical for drug discovery. Determining the natural cytotoxic effects resulting from test compounds is an essential research activity. A CellTox Green Cytotoxicity Assay to monitor cytotoxicity in real time of continues cell culture during 40 hours of the compound treatment was used to screen Tox21 10K library compounds in Hek293 cells. CellTox Green Cytotoxicity Assay is a nonlytic, homogeneous, biofluorescent method to measure cytotoxicity in cell culture after experimental manipulation. The assay system uses a proprietary asymmetric cyanine dye that is excluded from viable cells but preferentially stains the dead cell's DNA. […] Viable cells produce no appreciable increases in fluorescence. Therefore, the fluorescence signal produced by the binding interaction with dead cell DNA is proportional to cytotoxicity.
The mixture of Hek293 cell suspension and reagents were dispensed at 600cells/6 ul/well in 1536-well tissue culture treated black solid bottom plates using a Multidrop dispenser. After the assay plates were incubated at a 37 C/5% CO2 incubator for 5 hours, 23 nL of compounds dissolved in DMSO, positive and negative controls was transferred to the assay plate by a pintool work station. The plates were incubated at 37 C for 40 hours. The fluorescence intensity were measured at 0h, 8h, 16h, 24h, 32h and 40h time points using ViewLux plate reader during compound treatment.
% is set by controls: 0 for no effect and ±100 for the full control effect; potency is the fitted concentration of half-maximal effect.

| SMILES | cytotoxicity increase | Potency |
| --- | --- | --- |
| CN(C(=O)Cc1cccc2occc12)[C@H]1CC[C@@]2(CCCO2)C[C@@H]1N1CCCC1 | inactive: -1.17% | – |
| O=[As]c1ccccc1 (stereo not drawn) | inactive: 17% | – |
| NC(=O)Nc1ccc([As](=O)(O)O)cc1 | – | inactive |
| O=[N+]([O-])c1ccc([N+](=O)[O-])cc1 | inactive: -20.2% | – |
| COC(=O)Cl | inactive: -0.321% | – |
| Cc1cc([N+](=O)[O-])c(O)c([N+](=O)[O-])c1 | inactive: -10.1% | – |
| CCOP(=S)(CC)Sc1ccccc1 (stereo not drawn) | inactive: 9.69% | – |
| COP(=S)(Cl)OC | inactive: -4.5% | – |
| O=[P+](Oc1ccccc1)Oc1ccccc1 | inactive: 9.46% | – |
| O=C(Cl)Oc1ccccc1 | inactive: -3.68% | – |
| CN(C(=O)Cc1ccc(Cl)c(Cl)c1)[C@H]1CC[C@@]2(CCCO2)C[C@@H]1N1CCCC1 | inactive: -14.5% [at 35.3 µM] | – |
| O=C(Cl)OCCOC(=O)Cl | inactive: -12.7% | – |
| CCOC(=O)Cl | inactive: 0.0933% | – |
| ClP(Cl)c1ccccc1 | inactive: 14.8% | – |
| CCCCOP(OCCCC)OCCCC | inactive: -5.99% | – |
| CC(C)CCCCCCCOP(OCCCCCCCC(C)C)Oc1ccccc1 | inactive: 6.34% | – |
| O=C1C2CC=CCC2C(=O)N1SC(Cl)(Cl)C(Cl)Cl (stereo not drawn) | – | active: 39.2 µM and active: 9.77 µM |
| CN(C(=O)Cc1ccccc1)[C@H]1CC[C@@]2(CCCO2)C[C@@H]1N1CCCC1 | inactive: -0.641% [at 35.3 µM] | – |
| CN(N=O)C(=N)N[N+](=O)[O-] | inactive: -0.279% | – |
| CCCCO[P+](=O)OCCCC | – | inactive |
| CC(C)OP(=S)(OC(C)C)SCCNS(=O)(=O)c1ccccc1 | inactive: 8.92% | – |
| CCC(C)(OOC(C)(C)C)OOC(C)(C)C | inactive: 3.44% [at 15.8 µM] | – |
| O=P(Cl)(Cl)c1ccccc1 | inactive: -2.37% | – |
| O=[N+]([O-])c1ccc(S(=O)(=O)O)c([N+](=O)[O-])c1 | inactive: -3.85% | – |
| CCNC(C)Cc1ccc2c(c1)OCO2 (stereo not drawn) | inactive: -2.03% | – |
| Cc1cc([N+](=O)[O-])cc([N+](=O)[O-])c1O | – | inactive |
| O=P(Cl)(Oc1ccccc1)Oc1ccccc1 | inactive: 7.58% | – |
| CCCCC(CC)CO[P+](=O)OCC(CC)CCCC (stereo not drawn) | inactive: -5.42% | – |
